Values quoted from earlier work, collected in US11191762B2, “Alkyl substituted triazole compounds as agonists of the APJ Receptor” (priority 2016, dated 2021).

Conditions: cited from earlier work

Q: With Apelin-13 as the substance, how does the plasma half-life read?
A: < 5 min
